The chains behind the UniProt entries cited, without tags or fusion partners.
Serine/threonine-protein kinase PLK1 (Homo sapiens), P53350, UniProt P53350, whole entry, looked up: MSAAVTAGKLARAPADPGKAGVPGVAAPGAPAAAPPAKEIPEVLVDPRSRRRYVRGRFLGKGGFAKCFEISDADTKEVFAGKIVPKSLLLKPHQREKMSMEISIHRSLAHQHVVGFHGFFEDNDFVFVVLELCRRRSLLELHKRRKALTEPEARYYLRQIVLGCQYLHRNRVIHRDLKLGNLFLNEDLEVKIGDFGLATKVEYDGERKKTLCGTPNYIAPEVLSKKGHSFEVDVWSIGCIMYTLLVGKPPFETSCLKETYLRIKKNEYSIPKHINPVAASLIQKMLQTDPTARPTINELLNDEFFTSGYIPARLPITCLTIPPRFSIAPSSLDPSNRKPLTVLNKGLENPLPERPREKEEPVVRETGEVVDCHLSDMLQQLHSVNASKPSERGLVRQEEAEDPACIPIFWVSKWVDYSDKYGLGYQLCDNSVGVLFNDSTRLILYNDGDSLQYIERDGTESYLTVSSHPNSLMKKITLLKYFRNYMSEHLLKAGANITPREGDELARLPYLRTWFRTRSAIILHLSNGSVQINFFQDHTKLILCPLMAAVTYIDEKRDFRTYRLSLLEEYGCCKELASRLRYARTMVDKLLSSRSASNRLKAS
Importin subunit beta-1 (Homo sapiens), Q14974, UniProt Q14974, whole entry, looked up: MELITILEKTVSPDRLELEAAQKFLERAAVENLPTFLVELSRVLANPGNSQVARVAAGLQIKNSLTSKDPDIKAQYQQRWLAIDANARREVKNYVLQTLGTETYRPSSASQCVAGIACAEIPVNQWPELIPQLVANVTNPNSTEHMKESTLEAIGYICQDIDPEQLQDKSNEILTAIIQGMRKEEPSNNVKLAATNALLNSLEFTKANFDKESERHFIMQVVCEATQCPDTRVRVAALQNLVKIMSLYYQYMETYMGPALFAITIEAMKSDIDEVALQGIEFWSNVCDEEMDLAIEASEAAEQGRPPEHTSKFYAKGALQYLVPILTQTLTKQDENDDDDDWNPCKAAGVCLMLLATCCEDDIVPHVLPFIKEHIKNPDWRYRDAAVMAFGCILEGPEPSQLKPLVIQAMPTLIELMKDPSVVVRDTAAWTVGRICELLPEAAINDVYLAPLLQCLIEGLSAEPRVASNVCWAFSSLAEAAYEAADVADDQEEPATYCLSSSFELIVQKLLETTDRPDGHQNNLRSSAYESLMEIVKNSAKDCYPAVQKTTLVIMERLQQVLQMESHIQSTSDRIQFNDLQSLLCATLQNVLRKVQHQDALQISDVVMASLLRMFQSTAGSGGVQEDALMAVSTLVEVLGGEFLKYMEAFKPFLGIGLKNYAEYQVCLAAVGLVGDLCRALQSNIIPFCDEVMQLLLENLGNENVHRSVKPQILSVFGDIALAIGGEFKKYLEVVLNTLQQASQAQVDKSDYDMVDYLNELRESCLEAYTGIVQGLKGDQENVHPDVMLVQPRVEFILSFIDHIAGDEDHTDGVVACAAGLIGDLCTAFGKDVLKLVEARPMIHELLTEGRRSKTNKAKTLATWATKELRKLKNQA
Histone acetyltransferase KAT2A (Homo sapiens), Q92830, UniProt Q92830, whole entry, looked up: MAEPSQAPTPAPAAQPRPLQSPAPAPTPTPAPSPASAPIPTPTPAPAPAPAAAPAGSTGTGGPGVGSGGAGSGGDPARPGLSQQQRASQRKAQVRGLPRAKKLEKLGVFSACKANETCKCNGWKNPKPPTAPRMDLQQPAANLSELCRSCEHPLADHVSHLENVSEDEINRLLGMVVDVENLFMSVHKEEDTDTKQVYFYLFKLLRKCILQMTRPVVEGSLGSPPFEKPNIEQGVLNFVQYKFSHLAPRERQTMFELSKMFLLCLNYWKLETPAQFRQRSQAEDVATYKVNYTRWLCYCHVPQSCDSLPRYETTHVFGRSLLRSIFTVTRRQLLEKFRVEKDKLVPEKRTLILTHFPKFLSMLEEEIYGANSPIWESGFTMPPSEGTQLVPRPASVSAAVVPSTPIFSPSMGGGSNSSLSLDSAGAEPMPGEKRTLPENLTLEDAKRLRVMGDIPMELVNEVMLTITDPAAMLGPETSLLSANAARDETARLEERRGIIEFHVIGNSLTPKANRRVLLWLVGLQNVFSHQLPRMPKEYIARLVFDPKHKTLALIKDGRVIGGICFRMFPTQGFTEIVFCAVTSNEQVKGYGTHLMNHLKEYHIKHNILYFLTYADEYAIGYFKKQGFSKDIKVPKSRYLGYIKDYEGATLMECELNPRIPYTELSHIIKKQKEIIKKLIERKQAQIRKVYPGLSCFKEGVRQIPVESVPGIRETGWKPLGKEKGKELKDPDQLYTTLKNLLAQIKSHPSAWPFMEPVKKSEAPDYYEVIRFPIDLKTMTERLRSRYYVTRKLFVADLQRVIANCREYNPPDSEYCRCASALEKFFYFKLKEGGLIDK

# Compound activity (PubChem BioAssay)
# Only some compounds are listed: those with a hit (about 3.6% of all), similar ones and a draw of the others.
# Rango dissoc inh: qHTS Assay for Inhibitors of RanGTP induced Rango (Ran-regulated importin-beta cargo) - Importin beta complex dissociation; Potency, µM (doses to about 46.1 µM), inactives show at the highest dose activity change, negative = inhibition; Biochemical FRET Rango-importin beta, RanGTP-induced dissociation; Snurportin-1 (Homo sapiens) + GTP-binding nuclear protein Ran (Homo sapiens) + Importin …; AID 540253, 2011; 0.071% of 340,000 active; calls by dose curve; also: potency is read from the fitted curve at half-maximal effect; % of control where 0% means no effect; nearly all actives have a fitted effect of over 45% in size
#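 FRET read at 45 min, room temperature: inhibitors block the CFP/YFP signal rise when RanGTP (0.6 uM Ran, 2 mM GTP, 0.2 uM RCC1) frees Rango (0.1 uM) from importin beta (0.25 uM). Pre-read after 5 min compound exposure flags interference.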
# VDR inhibitor: Inhibitors of the vitamin D receptor (VDR): qHTS. Potency, µM, inactives show max response, negative = inhibition, most hits filed as inhibitors. AID 504847, 2011. 0.93% of 400,000 active. Vitamin D3 receptor (Homo sapiens), P11473. VDR-SRC2-3 peptide fluorescence polarization, 2 h; also: potency is read from the fitted curve at half-maximal effect; % is scaled to controls: 0 for no effect and ±100 for the full control effect
#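 Fluorescence polarization assay of small-molecule disruption of VDR binding to coregulator peptide SRC2-3. Compounds and controls pin-transferred, then read after 2 h incubation at ambient room temperature.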
# PLK1 PBD inh: qHTS for Inhibitors of PLK1-PDB (polo-like kinase 1 - polo-box domain): Primary Screen | Serine/threonine-protein kinase PLK1 (Homo sapiens), P53350 | Plk1 PBD binding of FITC phosphopeptide, fluorescence polarization | Potency, µM, for inactives: max response, negative = inhibition, hits mostly inhibitors | 2.8% of 360,000 active; also: potency is read from the fitted curve at half-maximal effect; series mostly up to about 57 µM; % is scaled to controls: 0 for no effect and ±100 for the full control effect; nearly all actives have a fitted effect of over 65% in size
# PI5P4K alpha inh: qHTS for Inhibitors of phosphatidylinositol 5-phosphate 4-kinase (PI5P4K). PI5P4Kalpha enzyme, ADP-Glo luminescence, 60 min; stronger effect = lower value. AID 652105, 2013. Phosphatidylinositol 5-phosphate 4-kinase type-2 alpha (Homo sapiens), P48426. 1.2% of 330,000 active. max response, %; active = max response of -50% or lower; inconclusive = between -30% and -50%; inactive = -30% or higher; also: value at the top dose of about 77 µM; % is scaled to controls: 0 for no effect and ±100 for the full control effect
#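 Human PI5P4Kalpha with substrate in 0.038 M HEPES pH 7.4, 0.28 mM EGTA, 0.1% CHAPS, 5% DMSO; reaction started with 5 microM ATP (final), 60 min at room temperature. ADP formed read by ADP-Glo luminescence.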
# Rango complex inh: qHTS Assay for Inhibitors of Rango (Ran-regulated importin-beta cargo) - Importin beta complex formation; Importin subunit beta-1 (Homo sapiens), Q14974; Rango CFP/YFP FRET sensor + importin beta, 45 min; Potency, µM (top dose mostly 92.2 µM), inactives show at the top dose inhibition of complex formation; 0.031% of 340,000 active; calls by dose curve;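 also: potency is read from the fitted curve at half-maximal effect; 0% = DMSO wells and 100% = buffer wells lacking importin beta; nearly all actives have a fitted effect of over 15% in size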
#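 FRET biosensor Rango (snurportin 1 IBB between N-terminal EYFP and C-terminal Cerulean), 50 nM in PBS/1 mM DTT/0.02% Tween-20/0.1% BSA, preincubated 5 min RT with compound; 0.125 microM importin beta added, 45 min RT, CFP/YFP FRET ratio read.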
# KAT2A inh: qHTS Assay for Inhibitors of GCN5L2; Potency, µM (top dose mostly 58.9 µM), without a hit: at the top dose activity change, negative = inhibition, most hits filed as inhibitors; GCN5L2 HAT assay, ThioGlo1 CoA-SH fluorescence; 0.21% of 390,000 active; AID 504327, 2011; Histone acetyltransferase KAT2A (Homo sapiens), Q92830; also: potency is read from the fitted curve at half-maximal effect; % is scaled to controls: 0 for no effect and ±100 for the full control effect
#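 GCN5L2 (20nM final) in 50mM HEPES, 0.1mM EDTA pH 7.5, 0.01% Tween-20 was preincubated 15 min at room temperature with compound, then given ThioGlo1 (50uM), H3(1-25) peptide (75uM) and acetyl-CoA (70uM); CoA-thiol fluorescence (Ex340/Em540) was read at 0 and 20 min.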
# The depositor's hits bear a star; ? = inconclusive; . = no result given; [ ] = remark or other dose. Unless noted, calls follow the shape of the dose curve; as a rule, active = well fitted curve in the direction sought with a large enough effect; inconclusive = small, poorly fitted or top-dose-only effect, or another doubt; inactive = no such curve, though single readings can be large; an effect the other way counts as inactive or inconclusive.
Rango dissoc inh	Structure	VDR inhibitor	PLK1 PBD inh	PI5P4K alpha inh	Rango complex inh	KAT2A inh
2.2%	CCc1ccc(NC(=O)Cn2nc(C)n3cccc3c2=O)cc1	5.6%	1.2%	-1.4	-1.4%	0.5%
-22.4%	CCOc1ccc(CN2CCNC(=O)C2CC(=O)NCCCOc2cccnc2)cc1 (stereo not drawn)	-5.5%	?	-1.4	-1.8%	-3.3%
9.5%	O=C(CC1C(=O)NCCN1Cc1cccc(F)c1)NCCCOc1cccnc1 (stereo not drawn)	-19.6%	23.8µM*	-0.5	-1.2%	-3.7%
.	Cc1ccccc1OCc1ccc(-c2nc(C#N)c(NCCCN(C)C)o2)o1	13.1%	.	.	.	-4.0%
.	Cc1ccc2c(CC(=O)Nc3c(C(=O)Nc4cccc(Cl)c4)oc4ccccc34)coc2c1C	2.7%	.	.	.	-4.6%
-0.1%	COc1cc(C2NC(=O)NC3=C2C(=O)OC3)cc(OC)c1OC (stereo not drawn)	-21.7%	29.9µM*	-0.6	-0.3%	-0.7%
.	CC(Oc1ccccc1)C(=O)OCc1cc(=O)n2nc(C(C)C)sc2n1 (stereo not drawn)	11.0%	.	.	.	-1.6%
.	CCCCCCCCCCCCOCCOCCOCCOCCOCCOCCOCCOCCOCCO	-8.9%	.	.	.	-6.5%
.	C=C1CCC2[C@](C)(CO)[C@H](O)CC[C@@]2(C)[C@@H]1C/C=C1/C(=O)OC[C@H]1O (stereo partly drawn)	-2.0%	.	.	.	.
7.9%	C=C/C(C)=C/C[C@H]1C(=C)CCC2[C@](C)(C(=O)O)CCC[C@@]21C (stereo partly drawn)	-4.0%	18.9µM*	4.8	-3.1%	-21.5%
-13.6%	O=c1[nH]c(=O)c2nnc(N/N=C/c3ccccc3F)nc2[nH]1	24.9%	-3.5%	-88.0*	-1.2%	2.4%
15.6%	COc1ccc(OC)c(C(=O)c2coc3ccc(OC(C)=O)cc23)c1	-15.6%	-11.7%	-0.2	-0.1%	0.1%
9.8%	CC(=O)Oc1ccc2occ(/C=N/c3cc(=O)[nH]c(=S)[nH]3)c(=O)c2c1	28.2µM*	5.32µM*	-51.3*	1.7%	-8.7%
.	O=C(CN1CCN(Cc2ccccc2Cl)C1=O)NCCc1ccc(Cl)cc1	-14.0%	.	.	.	-6.7%
0.6%	CC(C)OCCCNC(=O)CN1CCN(Cc2ccccc2Cl)C1=O	-23.9%	3.36µM*	?	0.5%	-2.4%[0.501 µM]
-4.3%	[O-]c1n[n+](-c2ccc(Cl)cc2)cc2ccccc12	?	3.36µM*	-16.4	-2.9%	-4.2%
0.8%	[O-]c1n[n+](-c2ccc(Cl)cc2Cl)cc2ccccc12	12.0%	-9.6%	2.8	1.4%	12.0%
-6.0%	NS(=O)(=O)c1cc2c(cc1Cl)NC(CC1CCCC1)NS2(=O)=O (stereo not drawn)	-4.1%	20.1%	-2.7	58µM*	-1.2%
.	CCC1Nc2cc(Cl)c(S(N)(=O)=O)cc2S(=O)(=O)N1 (stereo not drawn)	4.4%	.	.	.	-22.4%
8.1%	C/C(N)=C(/C#N)C(=O)CSc1nc2ccccc2c(=O)n1Cc1ccc(C)cc1	9.1%	-13.2%	-7.8	1.2%	-12.7%
3.8%	C/C(N)=C(/C#N)C(=O)CSc1nc2ccccc2c(=O)n1Cc1ccc(F)cc1	-11.0%	-11.4%	-57.7*	4.8%	-17.3%
.	CC(=O)N1CCC[C@@]2(CCN(c3ccncc3)C2)C1	-11.2%	.	.	.	2.6%
.	O=C(c1csnn1)N1CCC[C@@]2(CCN(c3ccncc3)C2)C1	70.8µM*	.	.	.	-7.0%
.	O=C(c1cnccn1)N1CCC[C@@]2(CCN(c3ccccc3)C2)C1	-9.7%	.	.	.	12.6%
.	O=C(c1cnccn1)N1CCC[C@@]2(CCN(c3cccc(-c4ccccc4)c3)C2)C1	28.2µM*	.	.	.	-10.5%

# 4 entries picked at random from the list so far, as already listed:
Rango dissoc inh	Structure	VDR inhibitor	PLK1 PBD inh	PI5P4K alpha inh	Rango complex inh	KAT2A inh
.	Cc1ccccc1OCc1ccc(-c2nc(C#N)c(NCCCN(C)C)o2)o1	13.1%	.	.	.	-4.0%
.	O=C(c1cnccn1)N1CCC[C@@]2(CCN(c3ccccc3)C2)C1	-9.7%	.	.	.	12.6%
7.9%	C=C/C(C)=C/C[C@H]1C(=C)CCC2[C@](C)(C(=O)O)CCC[C@@]21C (stereo partly drawn)	-4.0%	18.9µM*	4.8	-3.1%	-21.5%
.	CCC1Nc2cc(Cl)c(S(N)(=O)=O)cc2S(=O)(=O)N1 (stereo not drawn)	4.4%	.	.	.	-22.4%

# Further results follow:
Rango dissoc inh	Structure	VDR inhibitor	PLK1 PBD inh	PI5P4K alpha inh	Rango complex inh	KAT2A inh
18.0%	COc1ccc(S(=O)(=O)Nc2c(O)ccc3ccccc23)cc1OC	?	29.9µM*	-21.3	-1.8%	.
-2.0%	COc1ccc(C(=O)Nc2c(O)ccc3ccccc23)cc1OC	-1.3%	?	-9.0	-2.6%	.
.	COc1cc(C)ccc1OCCSc1nc2ccc(NC(C)=O)cc2s1	-2.3%	.	.	.	-16.8%
-16.3%	O=C(Nc1ccc2nccnc2c1)Nc1ccccc1Cl	?	23.8µM*	-7.1	?	25.9%
.	O=C(NCCS(=O)(=O)N1CCN(c2ccc(F)cc2)CC1)c1cccc(C(F)(F)F)c1	14.1%	.	.	.	-3.9%
.	COC(=O)c1sc(-c2ccccc2)cc1NC(=O)Nc1ccc(Cl)cc1	0.4%	.	.	.	-5.2%
-3.0%	COC(=O)c1sc(-c2ccc(Cl)cc2)cc1NC(=O)CSCC(=O)O	-16.6%	-19.3%	-53.3*	-1.4%	-6.1%
.	Cc1ccc(N2C(=O)CCSC23C(=O)N(Cc2ccccc2)c2ccccc23)cc1F (stereo not drawn)	-6.0%	.	.	.	26.8%
?	Cc1cc2ccccc2n1CCNC(=O)c1ccc(Br)o1	79.4µM*	-24.6%	-28.2	?	-1.0%
.	Nc1c(-c2nc(-c3cccs3)no2)nnn1-c1cccc(Cl)c1	2.4%	.	.	.	-6.9%
?	COc1cccc(-n2nc(C#N)c(Cl)cc2=O)c1	31.6µM*	?	0.2	9.3%	-1.4%
0.2%	COc1cccc(-n2nc(C(N)=O)c(O)cc2=O)c1	1.8%	-15.7%	0.2	1.8%	-9.1%
.	CCc1ccc2oc(C(=O)Nc3cc(C)ccc3C)cc(=O)c2c1	10.6%	.	.	.	-6.5%
-20.5%	Cc1ccc2c(c1)C(O)(CC(=O)c1ccc(C)s1)C(=O)N2 (stereo not drawn)	1.3%	?	-4.1	3.7%	2.8%
0.7%	Cc1ccc(C(=O)CC2(O)C(=O)Nc3ccccc32)s1 (stereo not drawn)	-4.6%	-7.6%	-54.5*	-0.4%	-7.8%
.	CCCC(=O)N1CCc2cc(OC)c(OC)cc2C1COc1ccc2c(C)cc(=O)oc2c1 (stereo not drawn)	-7.0%	.	.	.	2.6%
.	CCN1CCN(c2nnc(-n3cccc3C(=O)Nc3cccc(OC)c3)s2)CC1	0.2%	.	.	.	-1.6%
-4.9%	Clc1ccc(-c2csc(NNC3=NCCCCC3)n2)cc1	50.1µM*	?	-19.5	-1.4%	-9.1%
-7.0%	CCOc1ccc(-c2csc(NNC3=NCCCCC3)n2)cc1	?	18.9µM*	-17.3	-2.0%	-6.0%

# Some of these compounds in order of the KAT2A inh value, highest first.
Rango dissoc inh	Structure	VDR inhibitor	PLK1 PBD inh	PI5P4K alpha inh	Rango complex inh	KAT2A inh
-3.0%	COC(=O)c1sc(-c2ccc(Cl)cc2)cc1NC(=O)CSCC(=O)O	-16.6%	-19.3%	-53.3*	-1.4%	-6.1%
.	Nc1c(-c2nc(-c3cccs3)no2)nnn1-c1cccc(Cl)c1	2.4%	.	.	.	-6.9%
.	COc1cc(C)ccc1OCCSc1nc2ccc(NC(C)=O)cc2s1	-2.3%	.	.	.	-16.8%
